Results as given in US20150080559A1, “Compositions Containing, Methods Involving, and Uses of Non-Natural Amino Acid Linked Dolastatin Derivatives” (priority 2011, published 2015).

Tests used:
LS513 = experiment: In vitro inhibition of proliferation assay (WST-8), LS513; assay type: cell-based; conditions: Data Set I, experiment Sep. 4, 2010; 72 hr; read-out: IC50 Values after 72 hr drug treatment, LS513
Protocol: (§1) At day 1, the cells were seeded. The media was aspirated and the T-225 culture flasks of cells was rinsed with 30 mL PBS −/. PBS was aspirated and 6 mL of 0.25% Trypsin-EDTA was added to each flask. The flasks were incubated at 37C, 5% CO2 for 2-5 minutes. Adherent cells were dislodged by hitting flask and trypsin was neutralized by adding 14 mL culture medium. The cell suspension was mixed and transferred to a 50 mL conical tube. The cells were spun down at 1200 rpm, 5 min, room temperature. The resultant cell pellet was resuspended in 12 mL of culture medium. The cells were counted in a hemacytometer. Cells were seeded at appropriate cell densities into 96-well flat-bottom, clear plates and incubated overnight at 37° C., 5% CO2 to allow cells to attach. Plating volume was 80 uL/well. 80 uL/well of culture medium was utilized as the “no cell” control.
(§2) At day 2, the test samples were added to the cells. The test samples were diluted in culture medium to a 9× stock concentration in Column 2 of a round-bottom 96-well plate. 3× serial dilutions were made from Column 2 to Column 11 with a multi-channel pipettor. 10 uL/well of the above samples was added in duplicate to the appropriate wells of the seeded plate. The total volume in the wells was about 90 uL/well. […]
(§3) At day 5, proliferation readout occurred. […] The plates were measured for absorbance at OD 450 nm. […]

HT29 = experiment: In vitro inhibition of proliferation assay (WST-8), HT29; assay type: cell-based; conditions: Data Set II, experiment Sep. 24, 2010; 72 hr; read-out: IC50 Values after 72 hr drug treatment, HT29
Protocol: as §1
(§4) Cell plating density examples include: • BT474 (high Her2)—20,000 cells/well in F12k/DMEM (50/50), 10% FBS, P/S • MDA-MB-468 (Her2 negative)—6,000 cells/well in F12k/DMEM (50/50), 10% FBS, P/S • HCC1954—5,000 cells/well in RPMI 1640, 10% FBS, P/S • SKOV-3—6,000 cells/well in RPMI 1640, 10% FBS, P/S • HT29—20,000 cells/well in McCoy's 5A, 10% FBS, P/S
(§5) At day 2, the test samples were added to the cells. […]
as §3

MDA-MB-175 = experiment: In vitro inhibition of proliferation assay (WST-8), MDA-MB-175; assay type: cell-based; conditions: Data Set I, experiment Sep. 13, 2010; 72 hr; read-out: IC50 Values after 72 hr drug treatment, MDA-MB-175
Protocol: as §1, §2, §3

HCC1954 = experiment: In vitro inhibition of proliferation assay (WST-8), HCC1954; assay type: cell-based, human; conditions: 72 hr, read-out: IC50 Values after 72 hr drug treatment, HCC1954
Protocol: as §1, §4, §5, §3

MDA-MB-468 = experiment: In vitro inhibition of proliferation assay (WST-8), MDA-MB-468; assay type: cell-based; conditions: Data Set II, experiment Oct. 8, 2010; 72 hr; read-out: IC50 Values after 72 hr drug treatment, MDA-MB-468
Protocol: as §1, §4, §5, §3

ZR-75-30 = experiment: In vitro inhibition of proliferation assay (WST-8), ZR-75-30; assay type: cell-based; conditions: Data Set I, experiment Sep. 4, 2010; 72 hr; read-out: IC50 Values after 72 hr drug treatment, ZR-75-30
Protocol: as §1, §2, §3

NCI-N87 = experiment: In vitro inhibition of proliferation assay (WST-8), NCI-N87; assay type: cell-based; conditions: Data Set I, experiment Sep. 4, 2010; 72 hr; read-out: IC50 Values after 72 hr drug treatment, NCI-N87
Protocol: as §1, §2, §3

SKOV-3 = experiment: In vitro inhibition of proliferation assay (WST-8), SKOV-3; assay type: cell-based; conditions: 72 hr, read-out: IC50 Values after 72 hr drug treatment, SKOV-3
Protocol: as §1, §4
(§6) At day 2, the test samples were added to the cells. The test samples were diluted in culture medium to a 9× stock concentration in Column 2 of a round-bottom 96-well plate. 3× serial dilutions were made from Column 2 to Column 11 with a multi-channel pipettor. 10 uL/well of the above samples was added in duplicate to the appropriate wells of the seeded plate. The total volume in the wells was about 90 uL/well. 10 uL/well of culture medium was added to avoid edge effects for sample wells. Media Control wells were included in the inner wells where no sample was added (just 10 uL/well of culture medium) to be used in proliferation calculations. The plates were incubated at 37° C., 5% CO2 for 72 hrs.
as §3

BT474 = experiment: In vitro inhibition of proliferation assay (WST-8), BT474; assay type: cell-based; conditions: 72 hr, read-out: IC50 Values after 72 hr drug treatment, BT474
Protocol: as §1, §4, §6, §3

[1] = test system: HCC1954 (human breast carcinoma) xenograft; experiment: In vivo anti-tumor efficacy in HCC1954 xenograft model; parameters: species or system SCID-bg mice; conditions: day 28
Protocol: HCC1954 (human breast carcinoma) cells were obtained from American Type Culture Collection (Manassas, Va.) and cultured in RPMI+10% FBS, 37° C., 5% CO2 until 80% confluent. Cells were harvested by trypsinization and suspended in PBS at 1×10^8 cells/mL.
Female, SCID-beige mice, 5-8 weeks old, were obtained from Charles River Laboratories. HCC1954 cells (human, breast carcinoma, ATCC, # CRL-2338) were mixed 1:1 with Matrigel (BD Biosciences, Bedford Mass.) and injected subcutaneously into the mice. When tumors reached an average size of 100-200 mm^3, mice were sorted into groups of 9-10 mice each. Caliper measurements were taken twice weekly until the end of the study. To estimate tumor volume, two orthogonal diameters were measured with calipers and the values entered into the formula, (L×W×W)/2=V, (where W=the shortest diameter, L=the longest diameter and V=volume), to obtain an estimated volume. The tumor volume was converted to tumor weight in the Excel data file by assuming 1 mm^3=1 mg. Endpoint was based on a study design of tumor growth inhibition (TGI). When the mean tumor volume of the control group reached approx. 1,000 mm^3 all mice were euthanized or day 28, whichever came first.
Mice were given a single IV injection (tail vein) on day 1 of dosing. Test article was dissolved at 4 mg/mL, 2 mg/mL and 0.66 mg/mL and administered at a dose volume of 5 mL/kg to deliver 20, 10 and 3.3 mg/kg. Test articles were: Herceptin® clinical grade (Trastuzumab), Her2-HS122-NCD1 (Ab:Drug ratio=1:2, non-cleavable linker), and Her2-HS122/LK145-HCD1 (Ab:Drug ratio=1:4, cleavable linker) See FIG. 16.
HCC1954 cells were utilized for this study with 10^7 cells/mouse in Matrigel, SC in the right flank. Mice were SCID-bg female 4-8 weeks. Grouping was performed at day 5 after cell implantation (tumors ˜100 mm^3): sorted into 11 groups of 10 mice each. A single IV dose was given on day 1 of dosing with each compound at 3 dose levels, 20 mg/kg, 10 mg/kg and 3.3 mg/kg. Tumor volume was monitored until the endpoint was reached (1,000 mm^3 or 60 days). (FIG. 10) Paclitaxel 25 mg/kg, IV, qod×5 was employed as the control chemotherapy. The vehicle=50 mM histamine, 0.1 M NaCl, 5% trehalose, pH 6. Herceptin® clinical grade (Trastuzumab), Her2-HS122-NCD1 (non-cleavable linker) and Her2-HS122/LK145-HCD1 (cleavable linker) were tested. (FIGS. 11 and 12)

[2] = Data Set I, experiment Sep. 4, 2010
[3] = Data Set II, experiment Oct. 8, 2010
[4] = Data Set I, experiment Sep. 13, 2010

Which IC50 (LS513) does the source give for “Herceptin: humanized monoclonal antibody that binds to the domain IV of the extracellular segment of the HER2/neu receptor” here?
Its IC50 is greater than 300 nM.

And the IC50 (HT29)?
The IC50 was greater than 300 nM.

And the IC50 (MDA-MB-175)?
The IC50 was greater than 300 nM.

And the IC50 (HCC1954; [2])?
Its IC50 is greater than 300 nM.

What about the IC50 (HCC1954; [3]) of the same substance?
The IC50 was greater than 300 nM.

And the IC50 (MDA-MB-468)?
The IC50 was greater than 300 nM.

What about the IC50 (ZR-75-30) of the same substance?
Its IC50 is greater than 300 nM.

What about the IC50 (NCI-N87) of the same substance?
The IC50 was greater than 300 nM.

What about the IC50 (SKOV-3; [2]) of the same substance?
The IC50 was greater than 300 nM.

And the IC50 (SKOV-3; [4])?
The IC50 was greater than 300 nM.

What about the IC50 (SKOV-3; [3]) of the same substance?
The IC50 was greater than 300 nM.

What about the IC50 (BT474; [2]) of the same substance?
Its IC50 is greater than 300 nM.

And the IC50 (BT474; [4])?
Its IC50 is greater than 300 nM.

What about the IC50 (BT474; Data Set II, experiment Sep. 24, 2010) of the same substance?
The IC50 was greater than 300 nM.

And the “Median Tumor Volume” value ([1]; 3.3 mg/kg iv qd × 1)?
The value was 405 mm3.

And the “T/C (Treated/Control)” value ([1]; 3.3 mg/kg iv qd × 1)?
The value was 0.833.

And the “Median Tumor Volume” value ([1]; 10 mg/kg iv qd × 1)?
Its value is 446 mm3.

What about the “T/C (Treated/Control)” value ([1]; 10 mg/kg iv qd × 1) of the same substance?
Its value is 0.918.

What about the “Median Tumor Volume” value ([1]; 20 mg/kg iv qd × 1) of the same substance?
Its value is 385 mm3.

What about the “T/C (Treated/Control)” value ([1]; 20 mg/kg iv qd × 1) of the same substance?
Its value is 0.792.

Where two headings read alike, the source gives them in different places.
